Measurements from PubChem BioAssay (NCI).
Some of these compounds have results that are not shown, active ones among them.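 Protocol summary: plate cells (96-well), add compound at 5 concentrations, incubate 48 h, interpolate endpoints linearly. The concentration for 50% growth inhibition is given as GI50.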

Columns and labels:
Test in all cases: NCI-60 cell line screen, 48 h; in the data active means GI50 below about 0.43 µM; inactive means the rest
NCI-H226 lung = test system: NCI-H226 lung
UO-31 renal = test system: UO-31 renal
SK-MEL-2 melanoma = test system: SK-MEL-2 melanoma
HT29 colon = test system: HT29 colon
SW-620 colon = test system: SW-620 colon
EKVX NSCLC = test system: EKVX NSCLC
RPMI-8226 leukemia = test system: RPMI-8226 leukemia
A549 NSCLC = test system: A549 NSCLC
SK-OV-3 ovarian = test system: SK-OV-3 ovarian
OVCAR-8 ovarian = test system: OVCAR-8 ovarian
SR leukemia = test system: SR leukemia
M14 melanoma = test system: M14 melanoma
HS 578T breast = test system: HS 578T breast
T-47D breast = test system: T-47D breast
ACHN renal = test system: ACHN renal
786-0 renal = test system: 786-0 renal
NCI-H23 lung = test system: NCI-H23 lung
HCC-2998 colon = test system: HCC-2998 colon
SF-539 CNS = test system: SF-539 CNS
OVCAR-3 ovarian = test system: OVCAR-3 ovarian
OVCAR-5 ovarian = test system: OVCAR-5 ovarian
SF-295 CNS = test system: SF-295 CNS
COLO 205 colon = test system: COLO 205 colon
TK-10 renal = test system: TK-10 renal
RXF 393 renal = test system: RXF 393 renal
HOP-62 NSCLC = test system: HOP-62 NSCLC
K-562 leukemia = test system: K-562 leukemia
U251 CNS = test system: U251 CNS
SK-MEL-5 melanoma = test system: SK-MEL-5 melanoma
SNB-19 CNS = test system: SNB-19 CNS
MDA-MB-435 = test system: MDA-MB-435
SK-MEL-28 melanoma = test system: SK-MEL-28 melanoma
NCI-H522 lung = test system: NCI-H522 lung
KM12 colon = test system: KM12 colon
UACC-62 melanoma = test system: UACC-62 melanoma
HCT-116 colon = test system: HCT-116 colon
CCRF-CEM leukemia = test system: CCRF-CEM leukemia
MDA-N = test system: MDA-N
MOLT-4 leukemia = test system: MOLT-4 leukemia
HCT-15 colon = test system: HCT-15 colon
SN12C renal = test system: SN12C renal
DU-145 prostate = test system: DU-145 prostate
HL-60(TB) leukemia = test system: HL-60(TB) leukemia
PC-3 prostate = test system: PC-3 prostate
NCI-H322M lung = test system: NCI-H322M lung
OVCAR-4 ovarian = test system: OVCAR-4 ovarian
NCI/ADR-RES ovarian = test system: NCI/ADR-RES ovarian
CAKI-1 renal = test system: CAKI-1 renal
IGROV1 ovarian = test system: IGROV1 ovarian
A498 renal = test system: A498 renal
SF-268 CNS = test system: SF-268 CNS
LOX IMVI melanoma = test system: LOX IMVI melanoma
MCF7 breast = test system: MCF7 breast
SNB-75 CNS = test system: SNB-75 CNS
MALME-3M melanoma = test system: MALME-3M melanoma
MDA-MB-231 breast = test system: MDA-MB-231 breast
UACC-257 melanoma = test system: UACC-257 melanoma
NCI-H460 lung = test system: NCI-H460 lung

Measured: GI50

O=C(OC1CCN(Cc2ccccc2)C1)C(O)(c1ccccc1)c1ccccc1 (stereo not drawn)
inactive: NCI-H226 lung > 100 µM | UO-31 renal > 100 µM | SK-MEL-2 melanoma > 100 µM | HT29 colon 63.8 µM | SW-620 colon > 100 µM | EKVX NSCLC > 100 µM | RPMI-8226 leukemia 60.2 µM | A549 NSCLC > 100 µM | SK-OV-3 ovarian > 100 µM | OVCAR-8 ovarian > 100 µM | SR leukemia > 100 µM | M14 melanoma > 100 µM | HS 578T breast > 100 µM | T-47D breast > 100 µM | ACHN renal > 100 µM | 786-0 renal > 100 µM | NCI-H23 lung > 100 µM | HCC-2998 colon > 100 µM | SF-539 CNS > 100 µM | OVCAR-3 ovarian > 100 µM | OVCAR-5 ovarian > 100 µM | SF-295 CNS > 100 µM | COLO 205 colon > 100 µM | TK-10 renal > 100 µM | RXF 393 renal > 100 µM | HOP-62 NSCLC > 100 µM | K-562 leukemia > 100 µM | U251 CNS > 100 µM | SK-MEL-5 melanoma > 100 µM | SNB-19 CNS > 100 µM | MDA-MB-435 = > 100 µM | SK-MEL-28 melanoma > 100 µM | NCI-H522 lung > 100 µM | KM12 colon > 100 µM | UACC-62 melanoma > 100 µM | HCT-116 colon > 100 µM | CCRF-CEM leukemia > 100 µM | MDA-N > 100 µM | MOLT-4 leukemia 67.1 µM | HCT-15 colon > 100 µM | SN12C renal > 100 µM | DU-145 prostate > 100 µM | HL-60(TB) leukemia > 100 µM | PC-3 prostate 92.8 µM | NCI-H322M lung > 100 µM | OVCAR-4 ovarian > 100 µM | NCI/ADR-RES ovarian > 100 µM | CAKI-1 renal > 100 µM | IGROV1 ovarian > 100 µM | A498 renal > 100 µM | SF-268 CNS > 100 µM | LOX IMVI melanoma > 100 µM | MCF7 breast > 100 µM | SNB-75 CNS > 100 µM | MALME-3M melanoma 78.1 µM | MDA-MB-231 breast > 100 µM | UACC-257 melanoma > 100 µM | NCI-H460 lung > 100 µM
